In assay [1] the target is Alexa488-labeled human p53 (human) (UniProt P04637). In words: Alexa488 fluorescence emission change on sequential additions; 0.5 uM Alexa488-labeled protein (p53, JMY or GSN); 1 uM actin, then 0.5 uM of the other proteins added one after another; no polymerizing salts; 1 mM Ca2+.
For assay [2], the target named is Alexa488-labeled mouse JMY (mouse) (UniProt Q9QXM1). Described as above.
Assay [3] concerns the target Alexa488-labeled human gelsolin (human) (UniProt P06396). The assay is described as above.
For assay [4] the target is unchanged. In words: fluorescence polarisation; steady-state anisotropy of 0.2 uM Alexa488-GSN under polymerizing conditions (100 mM KCl, 1 mM MgCl2), millimolar Ca2+; 0.1 uM p53, 0.2 uM JMY and 2 uM filamentous actin added.

“rabbit skeletal muscle actin (from UniProt P68135 1-377) (natural protein; other documents disagree on this pair)”: the decrease of p53Alexa488 emission in assay [1] worked out at 3%.
As to “rabbit skeletal muscle actin (from UniProt P68135 1-377) (natural protein)”, in assay [2], the decrease of JMYAlexa488 emission was found to be 11%. The decrease of GSNAlexa488 emission in assay [3] was determined as 13%. Moreover, the steady-state anisotropy of Alexa488-GSN in assay [4] was 0.138.

The values are drawn from article PMC9408879.
